## Ab-91 heavy chain CDR variants: yeast mating affinities

Binding partner: SARS-CoV-2 spike HR2 peptide, sequence PDVDLGDISGINAS.

The variants keep the light chain, the linker and the frameworks of Ab-91 (scFv order VL, a 15-residue (Gly4Ser)3 linker, VH).
VL: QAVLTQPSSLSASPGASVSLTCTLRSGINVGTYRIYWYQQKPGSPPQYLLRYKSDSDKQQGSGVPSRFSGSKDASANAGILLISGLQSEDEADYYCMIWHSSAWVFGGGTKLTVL
VH: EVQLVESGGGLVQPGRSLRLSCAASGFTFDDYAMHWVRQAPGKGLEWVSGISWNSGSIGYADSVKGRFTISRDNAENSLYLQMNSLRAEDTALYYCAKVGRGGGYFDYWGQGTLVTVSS

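AAYL51 was designed without a model: most single CDR substitutions and a random sample of double and triple ones. Affinity was read by AlphaSeq, a pooled yeast mating assay with surface-displayed partners. The frequency of each diploid, read from paired DNA barcodes, reflects how well the two displayed proteins bind. Each replicate has its own calibration line, from reference interactions of the BCL2 family. There are three technical replicates.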

The whole VH of each variant is written out. The read-out is the apparent dissociation constant on a log10 scale (nM): the lower, the stronger. A pair that was not seen in that replicate is written "n.d."; this usually means weak binding, but a binder can also be missed. Empty control strains, which show no peptide, gave a signal in 21% of pairings with library AAYL51; the median was 4.54 and 95% of these signals were weaker than 3.26. No background was subtracted. For reference, the parent read 1.86 as the reference entry and 0.88 as a member of this library.

| # | VH | replicates, log10 nM |
|---|---|---|
| 1 | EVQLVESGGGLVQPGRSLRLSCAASGFTFDDYAMHWVRQAPGKGLEWVSGTSWNSGSIGYADSVKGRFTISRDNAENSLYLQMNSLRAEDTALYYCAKVERGGGYFDYWGQGTLVTVSS | n.d. / n.d. / n.d. |
| 2 | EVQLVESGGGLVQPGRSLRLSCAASGFTFDDYAMHWVRQAPGKGLEWVSGISWNSESIGYADSVKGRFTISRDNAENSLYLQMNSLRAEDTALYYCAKVGGGGGYFSYWGQGTLVTVSS | 1.58 / 1.59 / 1.26 |
| 3 | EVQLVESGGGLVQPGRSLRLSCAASGFTFDDYAMHWVRQAPGKGLEWVSRISWNSGSIGYSDSVKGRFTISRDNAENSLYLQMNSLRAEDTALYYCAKVGRGEGYFDYWGQGTLVTVSS | n.d. / n.d. / 3.32 |
| 4 | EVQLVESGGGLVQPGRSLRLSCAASQFTFDDYAMHWVRQAPGKGLEWVSGISHNSGSIGYADSVKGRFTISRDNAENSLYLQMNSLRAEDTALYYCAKVGRGGGYPDYWGQGTLVTVSS | 4.87 / n.d. / n.d. |
| 5 | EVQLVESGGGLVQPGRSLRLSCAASGFTFDDYAMIWVRQAPGKGLEWVSGISWNSRSIGYADSVKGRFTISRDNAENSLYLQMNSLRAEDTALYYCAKVIRGGGYFDYWGQGTLVTVSS | 4.88 / n.d. / n.d. |
| 6 | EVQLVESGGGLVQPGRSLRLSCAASKFTFDDYAMHWVRQAPGKGLEWVSGISWLSGSIGYADSVKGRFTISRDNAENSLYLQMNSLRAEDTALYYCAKVGRGGGRFDYWGQGTLVTVSS | n.d. / n.d. / n.d. |
| 7 | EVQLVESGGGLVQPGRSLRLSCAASGFTFDDYAMHWVRQAPGKGLEWVSGISWNSGSITYADSVKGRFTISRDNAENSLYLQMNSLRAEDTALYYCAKVGRGGGTQDYWGQGTLVTVSS | 4.02 / n.d. / n.d. |
| 8 | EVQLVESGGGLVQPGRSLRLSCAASGFTFDDYAMHWVRQAPGKGLEWVSMIIWNSGSIGYADSYKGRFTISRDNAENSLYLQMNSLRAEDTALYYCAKVGRGGGYFDYWGQGTLVTVSS | n.d. / n.d. / n.d. |
| 9 | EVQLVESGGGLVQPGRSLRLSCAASGFYKDDYAMHWVRQAPGKGLEWVSGISWNSGSIGYADSVKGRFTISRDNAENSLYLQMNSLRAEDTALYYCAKVGRGGGYFDYWGQGTLVTVSS | 6.14 / 3.80 / n.d. |
| 10 | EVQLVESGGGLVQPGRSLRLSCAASGFTFDDYAMHWVRQAPGKGLEWVSGISSNSVSIGYADSVKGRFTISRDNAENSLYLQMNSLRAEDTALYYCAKVGCGGGYFDYWGQGTLVTVSS | n.d. / n.d. / n.d. |

Continued, with the values leading:

| # | replicates, log10 nM | VH |
|---|---|---|
| 11 | n.d. / n.d. / n.d. | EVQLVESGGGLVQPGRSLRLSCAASGFTGDDYAMHWVRQAPGKGLEWVSYISWNSGSIGYIDSVKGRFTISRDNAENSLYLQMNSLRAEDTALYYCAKVGRGGGYFDYWGQGTLVTVSS |
| 12 | 5.11 / 5.57 / n.d. | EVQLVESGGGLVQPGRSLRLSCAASGFTFDDYAMHWVRQAPGKGLEWVSAISSNSGSIGYACSVKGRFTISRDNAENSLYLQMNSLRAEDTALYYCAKVGRGGGYFDYWGQGTLVTVSS |
| 13 | 4.96 / n.d. / n.d. | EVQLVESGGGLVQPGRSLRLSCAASGFTFMDYAMHWVRQAPGKGLEWVSGISWNSGSIGYADSVKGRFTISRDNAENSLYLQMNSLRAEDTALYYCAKVIMGGGYFDYWGQGTLVTVSS |
| 14 | 6.52 / 7.09 / 6.13 | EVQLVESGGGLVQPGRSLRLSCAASGFTFLDYAMHWVRQAPGKGLEWVSGISWNSGSIGYVDSVKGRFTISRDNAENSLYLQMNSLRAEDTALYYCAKCGRGGGYFDYWGQGTLVTVSS |
| 15 | 4.46 / 5.06 / n.d. | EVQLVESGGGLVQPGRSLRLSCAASGDTFDDYCMHWVRQAPGKGLEWVSGISWNSGSIGYADSVKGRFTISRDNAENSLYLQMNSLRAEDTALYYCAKYGRGGGYFDYWGQGTLVTVSS |
| 16 | n.d. / n.d. / n.d. | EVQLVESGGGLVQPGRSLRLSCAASGFTFDDYAGHWVRQAPGKGLEWVSGISWNSGSIGYADSVKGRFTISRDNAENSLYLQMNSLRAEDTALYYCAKVGRGGGYYDEWGQGTLVTVSS |
| 17 | n.d. / n.d. / n.d. | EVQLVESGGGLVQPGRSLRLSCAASGFIFDDYAMHWVRQAPGKGLEWVSGILWNLGSIGYADSVKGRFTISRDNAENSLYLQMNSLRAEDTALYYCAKVGRGGGYFDYWGQGTLVTVSS |
| 18 | 4.60 / n.d. / n.d. | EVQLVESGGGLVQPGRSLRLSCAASGFTFDDYDMHWVRQAPGKGLEWVSGISWNSGSIGYTCSVKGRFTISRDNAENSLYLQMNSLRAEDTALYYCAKVGRGGGYFDYWGQGTLVTVSS |
| 19 | 4.72 / n.d. / n.d. | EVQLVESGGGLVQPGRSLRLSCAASGFTFDDYAMHWVRQAPGKGLEWVSGIHWNSGSIGYADSVKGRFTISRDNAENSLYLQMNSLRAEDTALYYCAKVEFGGGYFDYWGQGTLVTVSS |
| 20 | 4.90 / n.d. / n.d. | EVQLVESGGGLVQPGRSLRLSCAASGFTFDDYAMHWVRQAPGKGLEWVSGISWNSGSIGYADSVKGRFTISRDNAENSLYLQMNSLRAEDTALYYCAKVGRGGFYFVYWGQGTLVTVSS |

Repeated from above, the 2 best binders with a signal in all replicates:

VH,"replicates, log10 nM"
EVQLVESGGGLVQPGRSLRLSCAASGFTFDDYAMHWVRQAPGKGLEWVSGISWNSESIGYADSVKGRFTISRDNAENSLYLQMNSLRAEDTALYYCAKVGGGGGYFSYWGQGTLVTVSS,1.58 / 1.59 / 1.26
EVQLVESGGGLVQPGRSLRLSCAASGFTFLDYAMHWVRQAPGKGLEWVSGISWNSGSIGYVDSVKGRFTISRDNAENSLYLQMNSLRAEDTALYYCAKCGRGGGYFDYWGQGTLVTVSS,6.52 / 7.09 / 6.13

Data: MIT Lincoln Laboratory AlphaSeq set, Engelhart et al. 2022, doi:10.1038/s41597-022-01779-4, as distributed in FLAb.